Assay results: patent US10709791B2, “Stabilized polymeric carriers for therapeutic agent delivery” (University of Washington, priority 2014, dated 2020)
Read-outs that look alike come from different tables or passages of the source.

Legend:
[1] = human serum, 37° C., at 24 h
[2] = diblock with discrete hydrophobic drug block
[3] = system: SKOV3 human ovarian cancer cells; details: 96 hours
[4] = Serum stability of peptide macromonomers and polymers; type: in vitro ADME, human; details: 37° C., 0 to 12 hours, MALDI-TOF MS

Substance | drug release [1] [%] | effect of self assembly on ester hydrolysis / drug release rate [2] | cells remaining viable ([3]; 10 μM) [%] | cell viability ([3]; all polymer concentrations (0-10 μM)) | hydrodynamic diameter (endosomal pH values (6.6-5.8)) [nm] | hydrodynamic diameter (pH 5.8) [nm] | hydrodynamic diameter (pH 7.4 (physiological pH)) | hydrodynamic diameter (pH 7.4 (physiological pH), listed as Pol{right arrow over (BIM)}) [nm] | stability of the FKFL linker in human serum [4] | hydrodynamic diameter (pH 7.4 (physiological pH), listed as PolSrBIM)
ciprofloxacin-(phenol)methacrylate [CPM] | ~50 | – | – | – | – | – | – | – | – | –
poly(methacrylic acid-co-dimethylaminoethyl methacrylate)-b-(DtSMA) [poly(MA-co-DMAEMA)-b-(DtSMA)] | – | significantly reduces the ester hydrolysis rate | – | – | – | – | – | – | – | –
poly[(DEAEMA)-co-(BMA)]-b-[(PEGMA300)-c-(MaAhxFKFLAhxBIM)] [PolBIM] | – | – | 25 | reduced the viability | 6 | 6 | approximately 25 nm | 25 | 2980 Da peak was absent at all time points | –
poly[(DEAEMA)-co-(BMA)]-b-[(PEGMA300)-c-(MaAhxFKFLAhxScrBIM)] [PolScrBIM] | – | – | – | – | 6 | 6 | 26 nm | – | 2980 Da peak was absent at all time points | approximately 25 nm
